# Assays:
# Aurora A [1] = target: T1, Aurora A (Homo sapiens, UniProt O14965); experiment: immunoprecipitation from mitotic HeLa cell extract; type: binding; settings: GST fusion proteins 1 μM, FIG. 1B
# T1 sequence (O14965 1-403): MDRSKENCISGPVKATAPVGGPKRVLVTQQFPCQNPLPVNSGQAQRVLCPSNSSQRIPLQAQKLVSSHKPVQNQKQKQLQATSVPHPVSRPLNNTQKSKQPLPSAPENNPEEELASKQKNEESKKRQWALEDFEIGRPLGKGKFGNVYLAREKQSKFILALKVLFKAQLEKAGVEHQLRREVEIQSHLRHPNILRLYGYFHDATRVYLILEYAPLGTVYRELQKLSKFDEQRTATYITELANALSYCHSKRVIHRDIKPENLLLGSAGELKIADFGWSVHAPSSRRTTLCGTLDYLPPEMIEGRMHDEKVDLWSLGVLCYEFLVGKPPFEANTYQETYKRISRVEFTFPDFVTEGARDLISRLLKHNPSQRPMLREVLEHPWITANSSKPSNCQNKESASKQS
# Method: HeLa cells (CCL2; ATCC, Manassas, Va.) were grown in 10% fetal calf serum (FCS) and 2 mM L-glutamine in modified Eagle's medium at 37° C. and 5% CO2. Cells were arrested in S phase using a double thymidine (2 mM) block as described (Stein, 1994) and released from S phase by washing away the thymidine. After 10 h, cells were trypsinized, incubated for 10 min in ice-cold lysis buffer (25 mM Tris pH 7.6, 200 mM NaCl, 1% Triton, protease inhibitors), and centrifuged for 10 min at 15,000 g. Xenopus cytostatic factor arrested extracts (CSF extracts) were prepared as described (Murray, 1991).
# For coating beads with anti-GST, 6 μg of antibody were incubated with 20 μl of protein A-conjugated Dynabeads 280 (Dynal) in a total volume of 100 μl PBS-T (PBS, 0.1% Triton X-100), for at least 1 h at 4° C. The beads were washed twice with PBS-T and twice with HeLa cells lysis buffer or CSF-XB (10 mM Hepes pH 7.7, 50 mM sucrose, 100 mM KCl, 2 mM MgCl2, 0.1 mM CaCl2 and 5 mM EGTA). […] The samples were then subjected to gel electrophoresis and analyzed by Western blotting with anti-GST, anti-Xenopus TPX2, anti-Xenopus Aurora-A or anti-human Aurora-A.
# Aurora A [2] = target: T1, Aurora A; experiment: in vitro kinase assay, phosphorylation of histone H3 (autoradiography); type: biochemical; set-up: were incubated with full length Aurora-A or AuroraΔN in kinase buffer; made in house; host or cells: bacteria (printed only for the full-length protein used as immunogen); settings: full length Aurora-A, TPX2 protein at 4 μM, FIG. 1C
# Aurora A [3] = target: T1, Aurora A; experiment: phosphatase assay, PP1 treatment of Aurora-A, Western blot; type: biochemical; settings: TPX2 protein 3 μM, Aurora-A 2 μM, PP1 0.5 h at 30° C., FIG. 1E
# Method: Active human Aurora-A (2 μM) was incubated with TPX2, TPX2(1-43) or TPX2(15-43) (3 μM) for 10 min at 4° C. Samples were diluted in phosphatase buffer (50 mM Tris-HCl pH 7, 0.1 mM EDTA, 1 mM MnCl2, 5 mM caffeine, 5 mM DTT, 0.025% Tween 20) and incubated in the absence or presence of PP1 (α isoform, NEB) for 0.5 h at 30° C. Afterwards proteins were separated by SDS-PAGE and analyzed by Western blotting with anti-Aurora-A or anti-phospho-Aurora-A (Cell Signalling, 1:10000 dilution).
# human Aurora-A = target: T2, human Aurora-A (Homo sapiens, UniProt O14965); experiment: in vitro kinase assay, phosphorylation of histone H3 (autoradiography); type: biochemical; settings: AuroraΔN (residues 122-403), FIG. 2C
# T2 construct: were incubated with full length Aurora-A or AuroraΔN in kinase buffer; made in house; host or cells: bacteria (printed only for the full-length protein used as immunogen)
# T2 sequence (O14965 122-403): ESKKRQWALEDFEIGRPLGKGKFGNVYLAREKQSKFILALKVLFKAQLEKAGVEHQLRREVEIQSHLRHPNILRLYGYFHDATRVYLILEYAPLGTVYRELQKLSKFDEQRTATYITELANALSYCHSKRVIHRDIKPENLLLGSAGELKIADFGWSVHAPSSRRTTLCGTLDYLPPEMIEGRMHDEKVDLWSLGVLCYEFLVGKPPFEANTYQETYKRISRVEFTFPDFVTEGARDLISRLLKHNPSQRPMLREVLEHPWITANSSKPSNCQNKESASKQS
substance,measurement,setting,value
"TPX2(1-43): minimal activating domain of TPX2, amino acid residues 1-43 of human TPX2",interaction with Aurora-A in HeLa extract,Aurora A [1],able to interact with Aurora-A
same,stimulation of histone H3 phosphorylation by Aurora-A,Aurora A [2],markedly increased
same,protection of Aurora-A from dephosphorylation by PP1,Aurora A [3],An even stronger protection effect
same,activation of AuroraΔN,human Aurora-A,activated
